Source: ChEMBL document CHEMBL4007415, “Thieno[3,2-b]pyrrole-5-carboxamides as New Reversible Inhibitors of Histone Lysine Demethylase KDM1A/LSD1. Part 1: High-Throughput Screening and Preliminary Exploration” (J Med Chem, 2017)

Sequences of proteins named here, by UniProt entry; tags and fusion partners are left off.
UniProt P27338, whole entry: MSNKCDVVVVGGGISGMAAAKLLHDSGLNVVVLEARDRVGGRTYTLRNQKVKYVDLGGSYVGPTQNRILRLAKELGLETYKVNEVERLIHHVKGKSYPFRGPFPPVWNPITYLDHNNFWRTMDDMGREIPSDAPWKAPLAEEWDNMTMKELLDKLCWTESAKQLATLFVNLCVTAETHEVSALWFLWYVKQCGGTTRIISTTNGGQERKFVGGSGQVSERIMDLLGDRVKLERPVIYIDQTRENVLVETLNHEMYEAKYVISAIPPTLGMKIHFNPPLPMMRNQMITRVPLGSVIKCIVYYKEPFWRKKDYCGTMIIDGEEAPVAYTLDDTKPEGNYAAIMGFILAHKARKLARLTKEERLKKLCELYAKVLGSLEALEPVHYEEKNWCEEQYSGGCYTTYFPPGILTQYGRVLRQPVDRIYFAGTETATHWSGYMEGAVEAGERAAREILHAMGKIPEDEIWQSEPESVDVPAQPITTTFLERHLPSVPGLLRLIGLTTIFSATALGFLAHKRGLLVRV

Target: Amine oxidase [flavin-containing] B (Homo sapiens, UniProt P27338)

Question: With NC1CCC(N[C@@H]2C[C@H]2c2ccccc2)CC1 (stereo partly specified) as the compound, how does the pIC50 read?
Answer: < 4.00

pIC50: −log10 of the molar value.
